Assay results as given in publication PMC8753592, “Long-acting capsid inhibitor protects macaques from repeat SHIV challenges” (Nature, 2021).
Values joined by “and” are separate entries in the source; they are usually repeats but may differ in a detail not shown here. Equal values may be shown once.

Tests used:
[1] = Experimental: After a 24-h equilibration period at 37 °C, samples were quenched with 4 volumes of 90% (vol/vol) acetonitrile and 10% (vol/vol) methanol containing internal standard. Then, they were quantified using the AB Sciex API 4000 LC–MS/MS system (GenTech Scientific) with electrospray ionization in positive mode and multiple-reaction monitoring and were analysed using Analyst 1.6.1 software. The fold change value in 100% rhesus plasma was then calculated using the plasma/CCM ratio after correcting for the sample dilution factor and the percentage of free fraction in the matrix.
[2] = test system: SHIV-SF162P3; test: Repeated escalating-dose rectal SHIV challenge study (plasma viraemia by gag RT-qPCR); format: in vivo, rhesus macaques of Indian origin; details: Cox proportional hazard model
Experimental: For the challenge study, 24 outbred rhesus macaques of Indian origin were assigned to the three study groups with even sex and weight distributions. All animals were housed at Alpha Genesis (Yemassee, SC), and all procedures were conducted in compliance with all relevant local, state and federal regulations and were approved by the Alpha Genesis IACUC. […] The injection sites were monitored daily by veterinary staff for 3 days. Beginning in week 1, animals in all three groups were challenged by the intrarectal route with 1 ml of RPMI containing the specified dilution of a 3.62 × 10^3 TCID50 SHIV-SF162P3 stock. At each respective time point, the challenges were performed on the same day, using the same virus stock and inoculation method across the three groups. […]
Protection against acquired infection was analysed using Cox proportional hazard regression models based on the exact partial likelihood for discrete time expressed in weeks, which explicitly accounts for the time-varying viral challenge dose in the model. The hazard ratios with 95% confidence intervals for per-exposure relative reductions in acquisition risk were calculated for the GS-CA1-treated groups, and the results were compared with those for the vehicle-treated control group. […]

CC(C)(C#Cc1ccc(-c2ccc(Cl)c3c(NS(=O)(=O)C4CC4)nn(CC(F)F)c23)c([C@H](Cc2cc(F)cc(F)c2)NC(=O)Cn2nc(C(F)F)c3c2C(F)(F)[C@@H]2C[C@H]32)n1)S(C)(=O)=O [GS-CA1]
Rhesus EQD plasma shift ([1]; extrapolated to 100% rhesus plasma vs CCM): 15.8 fold
Ratio, 10% Indian rhesus monkey plasma against CCM ([1]; individual experiments): 1.82 and 1.31 and 1.59
Mean (Ratio), 10% Indian rhesus monkey plasma against CCM ([1]; mean of three): 1.58
Hazard ratio (95% CI) ([2]; 150 mg/kg single s.c. vs vehicle): 0.127 (0.03–0.51)
Hazard ratio (95% CI) ([2]; 300 mg/kg single s.c. vs vehicle): 0.033 (0.0059–0.188)
